Experimental findings from US11192850B2, “N-aryl oxamic acids” (Purdue Research Foundation, priority 2020, dated 2021) are described below.

Chains of the proteins cited; added tags and fusions are not shown. Lines headed by an entry give the natural chain unless they say otherwise; changes in a name come on top. Residues count along the entry.
UniProt P15273, 152-461 limits assumed: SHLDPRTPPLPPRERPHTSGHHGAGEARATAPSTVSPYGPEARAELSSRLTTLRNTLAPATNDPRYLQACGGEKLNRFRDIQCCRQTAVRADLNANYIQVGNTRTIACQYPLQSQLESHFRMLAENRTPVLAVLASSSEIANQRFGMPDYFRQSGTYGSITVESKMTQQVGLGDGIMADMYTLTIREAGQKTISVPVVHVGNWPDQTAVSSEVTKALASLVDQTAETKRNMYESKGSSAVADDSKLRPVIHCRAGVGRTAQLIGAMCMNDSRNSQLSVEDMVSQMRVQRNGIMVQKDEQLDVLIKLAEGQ
UniProt Q13332: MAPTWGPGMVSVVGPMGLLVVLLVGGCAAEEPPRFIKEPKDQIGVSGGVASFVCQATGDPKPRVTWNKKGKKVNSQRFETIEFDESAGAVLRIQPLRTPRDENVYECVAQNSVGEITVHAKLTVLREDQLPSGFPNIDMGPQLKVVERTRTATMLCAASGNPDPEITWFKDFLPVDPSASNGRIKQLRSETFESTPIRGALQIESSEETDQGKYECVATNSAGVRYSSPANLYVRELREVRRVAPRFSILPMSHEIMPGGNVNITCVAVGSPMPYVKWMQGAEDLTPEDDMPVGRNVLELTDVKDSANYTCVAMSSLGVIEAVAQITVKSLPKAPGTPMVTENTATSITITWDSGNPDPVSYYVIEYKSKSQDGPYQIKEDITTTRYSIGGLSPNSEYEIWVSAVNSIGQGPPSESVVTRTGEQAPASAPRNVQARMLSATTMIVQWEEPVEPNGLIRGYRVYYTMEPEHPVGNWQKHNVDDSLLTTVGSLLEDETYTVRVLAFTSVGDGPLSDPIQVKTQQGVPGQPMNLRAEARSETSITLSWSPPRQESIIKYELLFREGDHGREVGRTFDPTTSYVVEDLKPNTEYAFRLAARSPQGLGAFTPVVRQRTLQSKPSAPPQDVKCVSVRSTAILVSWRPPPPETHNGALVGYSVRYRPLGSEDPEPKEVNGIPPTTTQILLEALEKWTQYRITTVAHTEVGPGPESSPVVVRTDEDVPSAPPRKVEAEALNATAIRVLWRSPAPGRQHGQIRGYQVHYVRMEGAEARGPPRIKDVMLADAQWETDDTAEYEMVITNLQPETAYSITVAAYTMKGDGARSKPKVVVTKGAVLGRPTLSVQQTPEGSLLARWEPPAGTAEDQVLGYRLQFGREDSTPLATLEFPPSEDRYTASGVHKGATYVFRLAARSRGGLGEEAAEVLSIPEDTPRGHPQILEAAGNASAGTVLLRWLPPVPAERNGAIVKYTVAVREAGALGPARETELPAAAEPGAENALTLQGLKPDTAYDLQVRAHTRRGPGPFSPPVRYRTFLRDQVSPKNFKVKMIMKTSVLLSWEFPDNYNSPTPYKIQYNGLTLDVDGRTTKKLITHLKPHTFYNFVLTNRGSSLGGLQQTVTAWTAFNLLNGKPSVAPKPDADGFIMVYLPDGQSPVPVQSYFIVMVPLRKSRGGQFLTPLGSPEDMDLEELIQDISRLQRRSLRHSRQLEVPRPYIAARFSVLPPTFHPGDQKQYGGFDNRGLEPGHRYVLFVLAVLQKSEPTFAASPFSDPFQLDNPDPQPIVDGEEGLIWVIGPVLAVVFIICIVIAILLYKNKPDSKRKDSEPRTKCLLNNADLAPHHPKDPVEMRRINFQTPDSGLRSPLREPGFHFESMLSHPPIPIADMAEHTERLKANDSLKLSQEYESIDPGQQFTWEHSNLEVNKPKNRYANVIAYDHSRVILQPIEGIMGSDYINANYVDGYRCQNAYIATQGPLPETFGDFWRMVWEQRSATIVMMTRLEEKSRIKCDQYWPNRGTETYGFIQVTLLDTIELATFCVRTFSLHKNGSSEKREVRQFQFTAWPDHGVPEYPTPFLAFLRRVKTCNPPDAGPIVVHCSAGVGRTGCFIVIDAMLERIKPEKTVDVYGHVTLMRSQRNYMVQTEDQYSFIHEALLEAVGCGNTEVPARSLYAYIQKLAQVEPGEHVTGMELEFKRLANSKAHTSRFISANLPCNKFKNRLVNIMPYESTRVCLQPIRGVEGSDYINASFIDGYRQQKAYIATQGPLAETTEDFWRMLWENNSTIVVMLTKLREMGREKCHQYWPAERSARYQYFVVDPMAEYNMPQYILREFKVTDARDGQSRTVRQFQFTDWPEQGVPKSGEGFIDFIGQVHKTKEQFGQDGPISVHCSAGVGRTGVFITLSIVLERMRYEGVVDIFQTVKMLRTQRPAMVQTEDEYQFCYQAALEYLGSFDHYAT
UniProt P24666: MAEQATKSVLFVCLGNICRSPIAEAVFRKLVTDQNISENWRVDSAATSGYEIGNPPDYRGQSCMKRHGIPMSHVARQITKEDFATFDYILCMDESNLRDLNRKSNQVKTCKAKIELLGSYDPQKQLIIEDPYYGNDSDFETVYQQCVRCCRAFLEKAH

Targets include YopH (Yersinia enterocolitica, UniProt P15273); PTPσ (Homo sapiens (Human), UniProt Q13332); LMPTP-1 (Homo sapiens (Human), UniProt P24666).
Assay in all cases: biochemical

The structures appear in SMILES notation.

Turning to `CN(C)c1cc(O)c(C(=O)O)cc1C#Cc1cccc(NC(=O)C(=O)O)c1` [Compound 4g, 5-((3-(carboxyformamido)phenyl)ethynyl)-4-(dimethylamino)-2-hydroxybenzoic Acid], the IC50 against YopH and at PTPσ was over 50 µM in each case.

Regarding `O=C(O)C(=O)Nc1ccc(C#Cc2ccc(C(F)(F)F)cc2)cc1` [Compound 4k, 2-oxo-2-((4-((4-(trifluoromethyl)phenyl)ethynyl)phenyl)amino)acetic Acid], the concentration for half-maximal inhibition (IC50) at YopH, on LMPTP-1 and on PTPσ was over 30 µM throughout.

For `O=C(O)C(=O)Nc1ccc(C#Cc2ccc(C(F)(F)F)cc2Cl)cc1` [Compound 4t, 2-((4-((2-chloro-4-(trifluoromethyl)phenyl)ethynyl)phenyl)amino)-2-oxoacetic Acid], the IC50 on YopH, at LMPTP-1 and on PTPσ was over 30 µM in each case.
